For one compound, survival results are on record in PubChem BioAssay AID493140 (UCLA Molecular Screening Shared Resource, 2011).

Only a part is listed here, and it is no random draw. Active and inactive are the calls of the source. No rule for the calls is given here.

A short description of the assay: compounds altering viability of human ES cells (AID 493140).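 Also: cells exposed to compounds for four days before counting.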 As to conditions: human embryonic stem cell survival screen; active compounds read high.
For `NC(=O)Nc1ccc([As](=O)(O)O)cc1`, the survival is inactive: 12.2.
